# Biological target: Histone deacetylase
# Experiment: Inhibition of HDAC in human HeLa cell nuclear extracts
# Assay type: cell-based
smiles,measurement,value
CS(=O)(=O)CCNCc1ccc(-c2ccc3ncnc(Nc4ccc(OCc5cccc(F)c5)c(Cl)c4)c3c2)o1 [LAPATINIB],IC50,> 100 µM
